GALK inhibitor – inhibitors of human galactokinase; AID 1868; P51570; Purified GALK, Kinase-Glo residual ATP luminescence; actives 0.007% (n = 270,000); Potency, µM (highest dose often 57.5 µM), inactives show top-dose activity change, negative = inhibition, hits mostly inhibitors; also: potency is read from the fitted curve at half-maximal effect; % is scaled to controls: 0 for no effect and ±100 for the full control effect
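The enzyme phosphorylates galactose (100 uM) using ATP (35 uM); inhibition is detected as higher residual ATP, quantified by bioluminescence after 1 h reaction at room temperature, pH 8.0.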
Nrf2 block – Nrf2 pathway inhibition. A549 ARE-Fluc reporter, luciferase luminescence, 18-24 h. Potency, µM (top dose mostly 46 µM), for the others: at the highest dose activity change, negative = inhibition, actives largely listed as inhibitors. actives 2.1% (n = 360,000). AID 504444; also: potency is read from the fitted curve at half-maximal effect; % is scaled to controls: 0 for no effect and ±100 for the full control effect; nearly all actives have a fitted effect of over 60% in size
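Reporter: ARE-Fluc in A549. Exposure: 18-24 h, 37 °C, 5% CO2, 5% FBS OPTI-MEM. Readouts: fluorescent cytotoxicity (CellTiter-Fluor), then luminescent Nrf2 signal after BugLite.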
PI4K2A inh – blocks human PI4K2A kinase activity | purified PI4K2A, ADP-Glo luminescence, 1 h; active compounds read low | activity change, negative = inhibition, % at 76.9 µM | actives 0.13% (n = 420,000) | AID 1346378; in the data active = activity change below about -50%; inconclusive = mostly about -30% to -49%;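 also: -100% = wells without enzyme as full effect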
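PI4K2A activity was measured by ADP-Glo luminescence: enzyme (4 ug/mL stock) and phosphatidylinositol (1.2 mM stock) in Tris pH 7.5/MgCl2/EGTA/Triton X-100 buffer were reacted with ATP (300 microM stock) for one hour at ambient temperature.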
Nrf2 activator – Nrf2 pathway activation; AID 624171; AREc32 ARE-luciferase reporter (MCF7-derived line), luminescence, 24 h; Potency, µM (top dose mostly 46.1 µM), without a hit: at the highest dose activation, actives largely listed as activators; actives 0.31% (n = 410,000); also: potency is read from the fitted curve at half-maximal effect; % of control where 0% means no effect; nearly all actives have a fitted effect of over 65% in size
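Nrf2 activation is followed as ARE-luciferase induction in the AREc32 line after one day of compound treatment; luminescence is read with Steady-Glo.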
miR-21 reporter – raises the signal of a miR-21 reporter | HeLa miR-21 FLuc reporter, luciferase, 48 h | Potency, µM (doses to about 38.3 µM), for the others: at the highest dose reporter change, positive = more light | 340,000 tested, under 10 active | AID 2288; active = well fitted rising curve with a large enough effect; inconclusive = small, poorly fitted or top-dose-only effect; inactive = no such curve, though single readings can be large or run the other way;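 also: % of control where 0% means no effect; miR-21 action dims this reporter so a rising signal means less miR-21 action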
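HeLa cells stably expressing CMV-driven firefly luciferase with a downstream miR-21 binding sequence, endogenously expressing miR-21, were treated with titrations (up to about 40uM final) for 48 hours at 37 degree Celsius. Luciferase luminescence was read after lysis.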
A549 tox-1 – A549 cytotoxicity, counter-screen for Nrf2 inhibitors; A549 ARE-Fluc cells, CellTiter-Fluor viability, 18-24 h; Potency, µM (highest dose often 46 µM), inactives show at the top dose activity change, negative = cytotoxicity, usual class: inhibitors; actives 0.16% (n = 390,000); AID 504648; also: potency is read from the fitted curve at half-maximal effect; % is scaled to controls: 0 for no effect and ±100 for the full control effect
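Cytotoxicity counterscreen: CellTiter-Fluor fluorescence was measured in A549 ARE_Fluc cells after 18-24 h of compound exposure in a concentration series. The subsequent BugLite luminescent read reports ARE-luciferase activity.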
FLuc enzyme inh – blocks purified firefly luciferase in Nrf2 counterscreen; actives 4% (n = 1,400); AID 720522; purified firefly luciferase, luminescence inhibition; shares compounds with Nrf2 block; Potency, µM (doses to about 57.5 µM), without a hit: at the top dose activity change, negative = inhibition, usual class: inhibitors; also: potency is read from the fitted curve at half-maximal effect; % is scaled to controls: 0 for no effect and ±100 for the full control effect; nearly all actives have a fitted effect of over 65% in size
A549 tox-2 – counter-screen for Nrf2 inhibitors: cytotoxicity in A549 ARE cells; shares compounds with Nrf2 block; A549 ARE-Fluc cells, cytotoxicity counterscreen; Potency, µM (titrated, usually from 46.1 µM), inactives show at the highest dose activity change, negative = cytotoxicity, hits mostly inhibitors; actives 2% (n = 1,400); AID 720523;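 also: potency is read from the fitted curve at half-maximal effect; cells exposed to compounds for 18 to 24 hours; % is scaled to controls: 0 for no effect and ±100 for the full control effect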
Nrf2 ARE inh – Nrf2 inhibition confirmed, A549 ARE-luciferase. shares compounds with Nrf2 block. A549 ARE-firefly luciferase reporter, luminescence. Potency, µM (doses to about 46.1 µM), for the others: top-dose activity change, negative = inhibition, actives largely listed as inhibitors. actives 74% (n = 1,400); also: potency is read from the fitted curve at half-maximal effect; % is scaled to controls: 0 for no effect and ±100 for the full control effect; nearly all actives have a fitted effect of over 65% in size
* = called active by the depositor; ? = inconclusive; / = not tested or not shown. Only some compounds are listed: those with a hit (about 2.2% of all), similar ones and a draw of the others. Unless noted, calls follow the shape of the dose curve; as a rule, active = well fitted curve in the direction sought with a large enough effect; inconclusive = small, poorly fitted or top-dose-only effect, or another doubt; inactive = no such curve, though single readings can be large; an effect the other way counts as inactive or inconclusive.

SMILES	GALK inhibitor	Nrf2 block	PI4K2A inh	Nrf2 activator	miR-21 reporter	A549 tox-1	FLuc enzyme inh	A549 tox-2	Nrf2 ARE inh
CC1(C)N=C(N)N=C(N)N1CCCCc1ccccc1	/	0.82µM*	-4	-1%	/	-3%	3%	-5%	1.2µM*
O=C(Nc1ccc(Oc2ccccc2)cc1)c1cnc2n(c1=O)CCS2	3%	?	2	-1%	1%	-3%	-15%	-2%	2.3µM*
CCOc1ccccc1NC(=O)c1cnc2n(c1=O)CCS2	3%	-23%	-3	0%	-9%	-5%	/	/	/
Cc1cnc2ccc3ccccc3c2c1C	/	/	/	/	/	/	?	-27%	6.5µM*
CCC[C@H]1[C@@H](OC(=O)NCCc2c[nH]c3ccccc23)CC[C@@]23CCCN2C(=O)CCC[C@@H]13	/	/	-2	/	/	/	/	/	/
C[C@H]1CCC/C=C/[C@@H]2C[C@H](O)C[C@H]2[C@H](O)[C@H](S(=O)c2ccc(O)cc2)CC(=O)O1 (stereo partly specified)	/	0.26µM*	-7	0%	/	?	1%	?	0.52µM*
C=CCN1C(=O)[C@@H](CC(=O)N2CCCCC2)[C@]2(C(=O)OCC)CCCCC/C=C/12	/	/	3	/	/	/	/	/	/
C[C@H]1C[C@H]2[C@@H]3CCC4=CC(=O)C=C[C@]4(C)[C@@]3(F)[C@@H](O)C[C@]2(C)[C@@]1(O)C(=O)CO	/	0.016µM*	1	-1%	/	-12%	-1%	-8%	0.0052µM*
C[C@H]1CC2C3CCC4=CC(=O)C=C[C@]4(C)[C@@]3(Cl)[C@@H](O)C[C@]2(C)[C@@]1(O)C(=O)CO (stereo partly specified)	/	/	3	/	/	/	/	/	/
C[C@H]1C[C@H]2[C@@H]3CCC4=CC(=O)C=C[C@]4(C)[C@@]3(Cl)[C@@H](O)C[C@]2(C)[C@@]1(O)C(=O)CO	-3%	0.015µM*	1	1%	-31%	-23%	3%	-10%	0.015µM*
CCC(=O)O[C@]1(C(=O)SCF)[C@H](C)C[C@H]2[C@@H]3C[C@H](F)C4=CC(=O)C=C[C@]4(C)[C@@]3(F)[C@@H](O)C[C@@]21C	/	/	3	/	/	/	/	/	/
CC12C=CC(=O)C=C1CCC1C3CCC(O)(C(=O)CO)C3(C)CC(O)C12F (stereo unspecified)	/	0.01µM*	-2	2%	/	-5%	4%	-8%	0.01µM*
CC(=O)C1(O)CCC2C3CC(C)C4=CC(=O)C=CC4(C)C3(F)C(O)CC21C (stereo unspecified)	/	0.033µM*	4	0%	/	-6%	2%	-1%	0.065µM*
C#CCN1CC(N(C)CCOC(=O)c2cccs2)CS1(=O)=O (stereo unspecified)	/	/	-9	/	/	/	/	/	/
COc1cccc(N2CCN(CC(=O)N(C)Cc3ccccc3Cl)CC2)c1	/	/	6	/	/	/	/	/	/
COc1ccc(Cn2cc(COC(=O)NCC(C)C)nn2)cc1	/	/	-5	/	/	/	/	/	/
COc1ccc2c(c1)CO[C@H]([C@H](O)COC(C)=O)[C@H]2/C=C/c1ccccc1	/	/	6	/	/	/	/	/	/
Nc1cc[n+](CC(=O)c2ccc3c(c2)OCCO3)cc1	1%	2.1µM*	2	-1%	20%	?	-4%	?	5.8µM*
COc1ccc(-c2noc(CCCCC(=O)N3CCN(c4cc(C)ccc4C)CC3)n2)cc1	/	3.7µM*	-1	-1%	/	-22%	-21%	-9%	7.3µM*
COc1ccccc1-c1noc(CCC(=O)N2CCN(c3cc(C)ccc3C)CC2)n1	/	4.6µM*	0	4%	/	?	3%	0%	-25%
CCOC(=O)c1csc(NC(=O)C2CCCN(S(=O)(=O)c3cc(OC)ccc3OC)C2)n1 (stereo unspecified)	/	/	-3	/	/	/	/	/	/
CC(=O)OCC(=O)C1(O)CCC2C3CCC4=CC(=O)CCC4(C)C3(F)C(O)CC21C (stereo unspecified)	/	0.037µM*	0	0%	/	-11%	3%	-5%	0.021µM*
CC(=O)OCC(=O)C1(O)CCC2C3CCC4=CC(=O)CCC4(C)C3(Cl)C(O)CC21C (stereo unspecified)	/	1.2µM*	-1	1%	/	-2%	0%	-12%	0.52µM*
CCNC(=S)NNC(=O)CSc1nc2ccccc2c(=O)n1-c1ccc(Cl)cc1	/	/	13	/	/	/	/	/	/
Nc1c(Cl)ncnc1N/N=C/c1ccccn1	5%	5.2µM*	-6	12%	-27%	?	?	?	2.1µM*

Further records follow:
SMILES	GALK inhibitor	Nrf2 block	PI4K2A inh	Nrf2 activator	miR-21 reporter	A549 tox-1	FLuc enzyme inh	A549 tox-2	Nrf2 ARE inh
CN(C)[C@H]1CCN(c2ccc3c(c2)O[C@H]2CCN(C2)S3(=O)=O)C1	/	/	-3	/	/	/	/	/	/
Cc1cccc(Cl)c1NC(=O)N1CCCN(c2nc3ccc(Cl)cc3s2)CC1	/	9.2µM*	2	7%	22%	?	-16%	-30%	9.2µM*
COc1ccc(OC)c(/C=C/c2ccc3ccccc3[n+]2C)c1	/	/	/	/	/	/	-2%	-33%	7.3µM*
C[n+]1c(/C=C/c2ccc(F)cc2)ccc2ccccc21	/	/	/	/	/	/	?	-21%	8.2µM*
COc1cc(/C=C(/C#N)c2ccc(C)cc2)ccc1Oc1ccc([N+](=O)[O-])cn1	-2%	2.9µM*	3	0%	0%	-2%	-12%	3%	?
CN(C)c1cc[n+](CC(=O)Nc2ccc(Cl)c([N+](=O)[O-])c2)cc1	-1%	4.6µM*	4	0%	29%	-3%	0%	-5%	8.2µM*
O=C(Nc1ccc(F)cc1)OCc1cn(Cc2cccc(F)c2F)nn1	/	/	2	/	/	/	/	/	/
O=c1[nH]c(=O)n([C@@H]2O[C@H](CO)[C@@H](O)[C@H]2O)cc1F	/	/	/	/	/	/	0%	?	46%
C[C@H]1O[C@@H](n2cc(F)c(=O)[nH]c2=O)[C@H](O)[C@H]1O	/	/	1	/	/	/	/	/	/
O=c1[nH]c(=O)n(C2OC(CO)C(O)C2O)cc1F (stereo unspecified)	/	?	-1	0%	/	?	2%	?	0.15µM*
CCc1cccc(NC(=O)C2CCN(S(=O)(=O)c3cccs3)CC2)c1	0%	-17%	0	0%	15%	0%	/	/	/

Not a retest: entries from further up.
SMILES	GALK inhibitor	Nrf2 block	PI4K2A inh	Nrf2 activator	miR-21 reporter	A549 tox-1	FLuc enzyme inh	A549 tox-2	Nrf2 ARE inh
C#CCN1CC(N(C)CCOC(=O)c2cccs2)CS1(=O)=O (stereo unspecified)	/	/	-9	/	/	/	/	/	/
COc1cccc(N2CCN(CC(=O)N(C)Cc3ccccc3Cl)CC2)c1	/	/	6	/	/	/	/	/	/
COc1ccc(Cn2cc(COC(=O)NCC(C)C)nn2)cc1	/	/	-5	/	/	/	/	/	/
COc1ccc2c(c1)CO[C@H]([C@H](O)COC(C)=O)[C@H]2/C=C/c1ccccc1	/	/	6	/	/	/	/	/	/
Nc1cc[n+](CC(=O)c2ccc3c(c2)OCCO3)cc1	1%	2.1µM*	2	-1%	20%	?	-4%	?	5.8µM*
